Source: article PMC11505200, “Exploring the 3,5-Dibromo-4,6-dimethoxychalcones and Their Flavone Derivatives as Dual α-Glucosidase and α-Amylase Inhibitors with Antioxidant and Anticancer Potential” (Antioxidants, 2024)

The chains behind the UniProt entries cited, without tags or fusion partners. Where a name states a change or a piece, a line headed by the entry shows the natural chain unless it says otherwise.
UniProt P53341: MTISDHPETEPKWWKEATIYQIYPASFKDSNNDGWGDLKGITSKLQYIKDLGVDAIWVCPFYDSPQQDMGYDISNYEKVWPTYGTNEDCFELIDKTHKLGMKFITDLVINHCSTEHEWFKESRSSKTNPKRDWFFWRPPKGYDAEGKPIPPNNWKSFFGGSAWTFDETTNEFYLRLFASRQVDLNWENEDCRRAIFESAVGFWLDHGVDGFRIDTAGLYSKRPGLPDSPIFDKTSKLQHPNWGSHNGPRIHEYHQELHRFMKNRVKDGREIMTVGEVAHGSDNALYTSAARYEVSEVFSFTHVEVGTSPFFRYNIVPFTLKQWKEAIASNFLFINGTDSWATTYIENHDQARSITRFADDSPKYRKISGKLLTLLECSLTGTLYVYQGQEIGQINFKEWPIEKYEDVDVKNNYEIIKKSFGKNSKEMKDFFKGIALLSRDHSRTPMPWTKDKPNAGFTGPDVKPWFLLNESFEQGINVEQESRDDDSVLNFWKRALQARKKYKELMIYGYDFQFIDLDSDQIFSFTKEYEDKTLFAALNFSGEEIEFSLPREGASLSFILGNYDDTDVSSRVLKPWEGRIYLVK

Molecular target: T1, α-glucosidase type 1 from Saccharomyces cerevisiae (Saccharomyces cerevisiae, UniProt P53341)
T1 construct: purchased Merck Life Science (Pty) Ltd. (Sigma-Aldrich) G5003
Type: biochemical
Settings: ratio of α-glucosidase to α-amylase IC50
Experimental: The assays and analyses were performed in triplicates following a method described in a previous study. […] A solution of α-glucosidase type 1 from Saccharomyces cerevisiae (0.48 u/mL, 17 μL), 100 mM phosphate buffer (pH 6.8; 50 μL) and the test sample in DMSO (17 μL) were incubated at 37 °C for 10 min. This pre-incubation was followed by addition of 2 mM p-nitrophenyl-α-D-glucopyranoside (PNP-G, 17 μL) to each of the wells containing reaction mixtures to initiate the reaction. The plate was then incubated for 30 min. at 37 °C. The five absorbance readings were recorded at a wavelength of 405 nm for each triplicate run using a Varioskan flash microplate spectrophotometer (Thermo Scientific, Waltham, MA, USA). The average values obtained from the readings were used to determine the IC50 and standard deviation values. The values were calculated by the nonlinear regression analysis using the Graph Pad Prism version 8.0.1 software (San Diego, CA, USA) and expressed as the mean SD of three distinct experiments.

SMILES	selectivity index (SI = IC50(α-glucosidase)/IC50(α-amylase))
COc1c(Br)c(OC)c2c(=O)cc(-c3ccc(Cl)cc3)oc2c1Br [3c, 6,8-Dibromo-2-(4-chlorophenyl)-5,7-dimethoxy-4H-chromen-4-ONE]	0.13
COc1c(Br)c(OC)c2c(=O)cc(-c3ccc(C)cc3)oc2c1Br [3e, 6,8-Dibromo-5,7-dimethoxy-2-(p-tolyl)-4H-chromen-4-one]	0.43
